{"source": "paper PMC12613816", "about": "“Discovery of Novel Isoxazole-Based Small-Molecule Toll-Like Receptor 8 Antagonists” (Journal of Medicinal Chemistry, 2025)", "biological_target": "T1, TLR8 (Homo sapiens, UniProt Q9NR97)", "T1 sequence (Q9NR97 27-1041)": "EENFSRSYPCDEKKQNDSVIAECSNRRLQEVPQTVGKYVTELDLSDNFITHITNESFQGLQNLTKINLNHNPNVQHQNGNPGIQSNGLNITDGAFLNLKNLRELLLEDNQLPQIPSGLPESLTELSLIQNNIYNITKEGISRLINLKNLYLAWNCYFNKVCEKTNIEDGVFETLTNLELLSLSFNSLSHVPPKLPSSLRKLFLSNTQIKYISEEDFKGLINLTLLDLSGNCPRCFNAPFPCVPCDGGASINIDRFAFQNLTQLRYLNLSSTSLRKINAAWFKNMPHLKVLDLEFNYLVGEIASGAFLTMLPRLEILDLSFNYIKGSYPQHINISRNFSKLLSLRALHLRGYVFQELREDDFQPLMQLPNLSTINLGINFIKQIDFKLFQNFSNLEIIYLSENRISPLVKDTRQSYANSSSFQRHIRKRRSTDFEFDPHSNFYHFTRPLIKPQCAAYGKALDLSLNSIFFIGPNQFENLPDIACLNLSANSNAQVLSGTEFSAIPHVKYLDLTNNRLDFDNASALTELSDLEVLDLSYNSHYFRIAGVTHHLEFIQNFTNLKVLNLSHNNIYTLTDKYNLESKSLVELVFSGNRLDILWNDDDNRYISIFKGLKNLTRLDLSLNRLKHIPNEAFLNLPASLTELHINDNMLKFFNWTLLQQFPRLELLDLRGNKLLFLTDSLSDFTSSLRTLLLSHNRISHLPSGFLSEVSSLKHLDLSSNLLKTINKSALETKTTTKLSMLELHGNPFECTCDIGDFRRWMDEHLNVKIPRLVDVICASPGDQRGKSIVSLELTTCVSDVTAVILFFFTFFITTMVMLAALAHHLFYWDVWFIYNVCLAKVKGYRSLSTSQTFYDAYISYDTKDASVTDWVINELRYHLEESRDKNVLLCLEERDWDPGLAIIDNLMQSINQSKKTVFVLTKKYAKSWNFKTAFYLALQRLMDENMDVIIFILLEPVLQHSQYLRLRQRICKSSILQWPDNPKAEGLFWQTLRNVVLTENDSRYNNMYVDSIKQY", "experiment": "Inhibition of TL8-506-stimulated NF-κB activity (SEAP reporter, QuantiBlue) in hTLR8-HEK293 reporter cells", "assay_type": "cell-based", "set-up": "host or cells: HEK293 (HEK-Blue hTLR8)", "conditions": "read-out: % inhibition at 10 µM ± SEM (NF-κB activity), 10 µM compound, TL8-506 (0.6 μM) 24 h", "data": [{"compound": "COc1cc(C(=O)NCCN2CCCC2)ccc1OCc1c(C)noc1C", "note": "[Compound 11]", "values": [{"measurement": "inhibition at 10 µM", "value": "75 ± 5", "unit": "%"}]}]}
